Experimental data taken from patent US9862688B2, “Hydrophobically tagged janus kinase inhibitors and uses thereof” (Dana-Farber Cancer Institute, Inc., priority 2014, dated 2018).

The chains behind the UniProt entries cited, without tags or fusion partners. Where a name states a change or a piece, a line headed by the entry shows the natural chain unless it says otherwise.
UniProt P52333: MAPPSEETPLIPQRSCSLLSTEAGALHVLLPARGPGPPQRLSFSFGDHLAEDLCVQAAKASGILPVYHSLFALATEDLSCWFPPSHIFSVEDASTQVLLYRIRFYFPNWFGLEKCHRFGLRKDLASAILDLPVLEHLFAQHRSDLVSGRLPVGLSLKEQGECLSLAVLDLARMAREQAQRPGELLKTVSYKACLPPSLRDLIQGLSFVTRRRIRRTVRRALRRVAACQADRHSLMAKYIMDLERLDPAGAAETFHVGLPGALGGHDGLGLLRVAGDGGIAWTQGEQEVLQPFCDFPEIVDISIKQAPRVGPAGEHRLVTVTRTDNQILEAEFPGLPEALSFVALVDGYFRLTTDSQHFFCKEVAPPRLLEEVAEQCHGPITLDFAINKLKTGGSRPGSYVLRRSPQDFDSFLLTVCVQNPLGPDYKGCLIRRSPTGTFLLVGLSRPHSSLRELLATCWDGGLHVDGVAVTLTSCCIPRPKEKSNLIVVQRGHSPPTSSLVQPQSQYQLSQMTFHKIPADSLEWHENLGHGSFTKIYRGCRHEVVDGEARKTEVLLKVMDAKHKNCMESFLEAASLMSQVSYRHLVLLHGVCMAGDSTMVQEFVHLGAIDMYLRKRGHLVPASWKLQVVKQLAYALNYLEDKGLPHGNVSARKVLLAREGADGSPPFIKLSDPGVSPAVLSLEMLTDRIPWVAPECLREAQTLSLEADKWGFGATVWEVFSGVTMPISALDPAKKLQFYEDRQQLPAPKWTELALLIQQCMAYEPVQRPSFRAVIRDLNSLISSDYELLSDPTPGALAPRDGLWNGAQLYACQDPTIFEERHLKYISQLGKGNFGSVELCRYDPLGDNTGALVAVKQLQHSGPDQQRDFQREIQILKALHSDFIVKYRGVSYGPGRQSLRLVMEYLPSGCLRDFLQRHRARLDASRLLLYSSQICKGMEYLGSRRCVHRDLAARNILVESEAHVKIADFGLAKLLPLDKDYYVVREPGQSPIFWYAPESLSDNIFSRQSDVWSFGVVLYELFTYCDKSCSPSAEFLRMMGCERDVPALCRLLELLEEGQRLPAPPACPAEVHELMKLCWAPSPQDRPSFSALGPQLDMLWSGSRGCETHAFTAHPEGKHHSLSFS

Key:
[1] = tested on: CMK (an Acute Megakaryoblastic Leukemia (AMKL) cell line); assay: Cancer cell line proliferation analysis (CellTiter-Glo), CMK; type: cell-based; settings: Homo sapiens; CMK cells, 72 hours at 37° C., cell viability; read-out: Cancer cell lines IC50 (nM) CMK
Description: (§1) Cell Proliferation Analysis
(§2) CellTiter-Glo® Luminescent cell viability assay (Promega) was used to assess cell survival following treatment with the compounds described herein. Cells were seeded into 384 well plates with the EL406 Combination Washer Dispenser (BioTek Instruments, Inc.), and the compounds were injected into the cells culture media with the JANUS Automated Workstation (PerkinElmer Inc.). Cells were treated with a series diluted inhibitors (20 to 0.04 μM) for 72 hours at 37° C. Luminescent measurement is performed using the 2104 Envision® Multilabel Reader (PerkinElmer Inc.). The cell lines employed include Ba/F3 (a murine interleukin-3 dependent pro-B cell line), NKL (a Natural Killer Cell Lymphoma (NKCL) cell line), CMK (an Acute Megakaryoblastic Leukemia (AMKL) cell line).

Ba/F3 JAK3 = assay: Ba/F3 cell proliferation analysis (CellTiter-Glo), JAK3; type: cell-based, murine; settings: Mus musculus, BaF3, 72 h, Ba/F3 cells, 72 hours at 37° C., cell viability
Description: as §1, §2

JAK3 = JAK3 (Homo sapiens (Human), UniProt P52333); assay: INVITROGEN Select Screening in vitro kinase activity assay; type: biochemical; settings: enzymatic
Description: The in vitro activity of the compounds described herein in inhibiting JAK3 and other kinases were obtained using an INVITROGEN Select Screening assay as known in the art.

Ba/F3 JAK2 = assay: Ba/F3 cell proliferation analysis (CellTiter-Glo), JAK2; type: cell-based, murine; settings: Mus musculus, BaF3; Ba/F3 cells, 72 hours at 37° C., cell viability
Description: as §1
as §2, with “Luminescent measurement is performed using the 2104 Envision® Multilabel Reader (PerkinElmer Inc.).” left out

Ba/F3 JAK1 = assay: Ba/F3 cell proliferation analysis (CellTiter-Glo), JAK1; type: cell-based, murine; settings: Mus musculus, BaF3; Ba/F3 cells, 72 hours at 37° C., cell viability
Description: as §1, §2

Ba/F3 ABL = assay: Ba/F3 cell proliferation analysis (CellTiter-Glo), ABL; type: cell-based, murine; settings: Mus musculus, BaF3; Ba/F3 cells, 72 hours at 37° C., cell viability
Description: as §1
as §2, with “Luminescent measurement is performed using the 2104 Envision® Multilabel Reader (PerkinElmer Inc.).” left out

Row | SMILES | IC50 [1] | IC50 (Ba/F3 JAK3) | IC50 (JAK3) | IC50 (Ba/F3 JAK2) | IC50 (Ba/F3 JAK1) | IC50 (Ba/F3 ABL)
1 | C=CC(=O)Nc1cccc(CNc2nc(Nc3ccc(N4CCN(CCNC(=O)CC5[C@H]6C[C@@H]7C[C@@H](C[C@H]5C7)C6)CC4)cc3OC)ncc2Cl)c1 (some centres unmarked) [Compound 1] | 726 nM | 482 nM | 55.5 nM |  |  | 
2 | C=CC(=O)Nc1cccc(CNc2nc(Nc3ccc(N4CCN(CCCNC(=O)CC5[C@H]6C[C@@H]7C[C@@H](C[C@H]5C7)C6)CC4)cc3OC)ncc2Cl)c1 (some centres unmarked) [Compound 2] |  |  |  | 3110 nM | 3350 nM | 3040 nM
3 | C=CC(=O)Nc1cccc(CNc2nc(Nc3cnn(CCN4CCN(C(=O)CC5[C@H]6C[C@@H]7C[C@@H](C[C@H]5C7)C6)CC4)c3)ncc2Cl)c1 (some centres unmarked) [Compound 5] |  |  |  | 1370 nM |  | 1970 nM
